According to patent US20070082871A1, “Antiresorptive mutual salt of raloxifene and bisphosphonic acid” (HANMI PHARM. CO., LTD., priority 2003, published 2007):

Tested on: ovary-removed rats
Settings: relative to OVX control = 1.00; 1.0 mg/kg (T1)
Procedure: In order to investigate the effects of the inventive mutual salts on BMD, bone stiffness, serum cholesterol level and calcium density, in vivo tests were carried out as follows.
Also, 1.5% carboxymethylcellulose alone was administrated in a same manner to each of ovary-removed rats (group OVX) and normal rats (control, group Sham). After 8 weeks, a femur sample was obtained from each test groups to measure BMD, maximum load, stiffness, trabecular volume of epiphysis, bone volume of metaphysis, blood cholesterol level and blood calcium density.

Question: How did the “Bone volume Relativ Vol” value turn out when `NCCCC(O)(P(=O)(O)O)P(=O)(O)O` [Alendronate, sodium alendronate trihydrate] was run?
Answer: 1.96
